# Experimental data as given in BindingDB's records for 7799399.
# Sequences of proteins named here, by UniProt entry; tags and fusion partners are left off.
# UniProt P41143, whole entry, looked up: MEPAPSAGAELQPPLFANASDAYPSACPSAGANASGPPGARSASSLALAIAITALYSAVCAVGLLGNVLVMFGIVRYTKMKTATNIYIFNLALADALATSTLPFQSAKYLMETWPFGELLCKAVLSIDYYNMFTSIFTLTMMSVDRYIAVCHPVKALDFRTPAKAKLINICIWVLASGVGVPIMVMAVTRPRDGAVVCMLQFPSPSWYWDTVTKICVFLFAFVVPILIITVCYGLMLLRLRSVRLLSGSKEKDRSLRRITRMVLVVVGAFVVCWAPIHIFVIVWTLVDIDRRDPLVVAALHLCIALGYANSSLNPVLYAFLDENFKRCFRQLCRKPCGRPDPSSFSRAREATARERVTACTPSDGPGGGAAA
# Target: Delta-type opioid receptor (Homo sapiens, UniProt P41143)
# Assay: Binding affinity for delta opioid receptor in guinea pig brain membranes; using 2 nM [3H]DPDPE as radioligand
structure (smiles),measurement,value
CN(C(=O)Cc1ccc(Cl)c(Cl)c1)[C@H](CN1CCCC1)c1cccc(N)c1,IC50,89 nM
